Among the data in PubChem BioAssay AID1645860 (Buhrlage Lab, Dana-Farber Cancer Institute and Novartis …, 2021) are inhibition values, retold here.

The chains behind the UniProt entries cited, without tags or fusion partners.
UniProt Q70CQ3, whole entry: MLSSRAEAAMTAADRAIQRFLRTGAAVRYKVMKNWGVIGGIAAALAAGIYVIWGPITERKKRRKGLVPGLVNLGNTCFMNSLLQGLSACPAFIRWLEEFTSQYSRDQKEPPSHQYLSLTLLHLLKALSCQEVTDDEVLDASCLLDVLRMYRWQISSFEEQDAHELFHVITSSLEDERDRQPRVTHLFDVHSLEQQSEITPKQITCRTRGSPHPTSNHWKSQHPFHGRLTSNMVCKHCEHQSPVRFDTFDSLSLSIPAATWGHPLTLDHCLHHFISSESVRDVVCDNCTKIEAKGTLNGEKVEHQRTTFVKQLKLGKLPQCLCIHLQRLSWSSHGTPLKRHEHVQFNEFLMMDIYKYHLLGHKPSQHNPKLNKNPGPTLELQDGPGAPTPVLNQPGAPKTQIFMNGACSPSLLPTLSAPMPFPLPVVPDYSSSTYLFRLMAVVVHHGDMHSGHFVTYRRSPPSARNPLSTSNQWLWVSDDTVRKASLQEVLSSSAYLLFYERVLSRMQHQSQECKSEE

Only a part is listed here, and it is no random draw. Some tests of the compounds listed are not included; inactive here does not mean inactive elsewhere. Calls of active or inactive are those of the source. Rule as the data show it: active = inhibition above about 30%; inactive = the rest.

This test concerns the target Ubiquitin carboxyl-terminal hydrolase 30 (Homo sapiens) (UniProt Q70CQ3). As to the kind of experiment: inhibitors of human USP30 deubiquitinase (AID 1645860). Conditions: purified USP30, Ub-rhodamine cleavage fluorescence; at 25 µM; active compounds read high.
By inhibition is commonly meant the change of the read-out against control, counted positive when it falls. On to `O=C(NCC1(N2CCCCC2)CCCCC1)c1ccc2ccccc2c1`, for which the inhibition was inactive: -11.5%. Take `O=C(NCC1(N2CCOCC2)CCCCC1)c1ccccc1F`: the inhibition is inactive: -3.6%. The figure for `Cc1c(C(=O)NCC2(N(C)C)CCCCC2)oc2ccccc12` is inactive: -0.00466%; for `Cc1c(C(=O)NCC2(N(C)C)CCCCC2)oc2ccc(F)cc12` it is inactive: 9.34%. As to `COc1cccc(C(=O)NCC2(N3CCCCC3)CCCCC2)c1`, the inhibition is inactive: -147%. The figure for `COc1ccc(C(=O)NCC2(N3CCOCC3)CCCCC2)cc1` is inactive: -7.93%; for `O=C(NCC1(N2CCCCC2)CCCCC1)c1ccc2c(c1)OCCO2` it is inactive: 13.4%.
